In ChEMBL document CHEMBL1121753 (J Med Chem, 1981):

Test system: ADJ/PC6
Assay: Compound was tested for inhibition against ADJ/PC6 mouse plasma cell tumor at the dose of 320 mg/Kg

## [O-][P@+]1(N(CCCl)CCCl)NC[C@H](F)CO1
  Inhibition: 88.3%
